System: NF-κB-mediated luciferase activity in HEK293 NF-κB/Luc cells
Assay: NF-κB-mediated luciferase reporter gene assay
Type: cell-based, human
Details: pretreatment of NF-κB/Luc 293 cells
Experimental: The HEK293 NF-κB/luciferase reporter cell line is a derivative of the human embryonic kidney cell line (ATCC; CRL-1573) and carries a luciferase reporter gene under the regulation of 5×NF-κB binding sites. […] When performing the luciferase assay, the DMEM basal medium was replaced with phenol-red free DMEM basal medium and the G418 was omitted.
For NF-κB-mediated luciferase assays, HEK293 NF-κB/luciferase cells were seeded at 1.5×10^4 cells/well in 90 μl phenol-red free DMEM complete medium into Corning 3917 white opaque-bottom tissue culture plates. For Formulae II-2, II-4, II-5A and II-18, a 400 μM starting dilution was made in 100% DMSO and this dilution was used to generate an 8-point half log dilution series. This dilution series was further diluted 40× in appropriate culture medium and ten μl aliquots were added to the test wells in triplicate resulting in final test concentrations ranging from 1 μM to 320 pM. […]
At the end of the TNF-α stimulation, 100 μl of Steady Lite HTS luciferase reagent (Packard Bioscience) was added to each well and the plates were left undisturbed for 10 min at room temperature before measuring the luciferase activity. The relative luciferase units (RLU) were measured by using a Fusion microplate fluorometer (Packard Bioscience).
NF-κB inducible luciferase activity was measured at 6 hours.

CC[C@H]1C(=O)N[C@@]2([C@@H](O)[C@@H]3C=CCCC3)C(=O)O[C@@]12C [Formula II-17]
luciferase activity upon TNF-α stimulation: dose-dependent decrease of luciferase activity
